Source: patent publication US12440528B2, “Methods of treating ovarian cancer with hemp extract” (Ecofibre USA Inc., priority 2021, dated 2025)

Test system: patient derived organoids (PD3D Cell Culture)
Assay: Calculated IC50 in PD3D cell culture of the patient derived organoids
Assay type: cell-based, human

Row | Substance | Calculated IC50 PD3D Cell Culture
1 | Cetuximab | Not Reached
2 | Kadcyla: agent tested on the patient derived organoids | Not Reached
